Experimental data from PubChem BioAssay AID504692 (The Scripps Research Institute Molecular Screening Center, 2011).
This is a selection; strong and weak results do not stand in their true shares. Calls of active or inactive are those of the source. Cut-off read from the data, not from the text of the source: active = activation mostly above about 9.5% (no sharp cut-off); inactive = mostly below about 7.6%.

The chains behind the UniProt entries cited, without tags or fusion partners.
UniProt P47898, whole entry, looked up: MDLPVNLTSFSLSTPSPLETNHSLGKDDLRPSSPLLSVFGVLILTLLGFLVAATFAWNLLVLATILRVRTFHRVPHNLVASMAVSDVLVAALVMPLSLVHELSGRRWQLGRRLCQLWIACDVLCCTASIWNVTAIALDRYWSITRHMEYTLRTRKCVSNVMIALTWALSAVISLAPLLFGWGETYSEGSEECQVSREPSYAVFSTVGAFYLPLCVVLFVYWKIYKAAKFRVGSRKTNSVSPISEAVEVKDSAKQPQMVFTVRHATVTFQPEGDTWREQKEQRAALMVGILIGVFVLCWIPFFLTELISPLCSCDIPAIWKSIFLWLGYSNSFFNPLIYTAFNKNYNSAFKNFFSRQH

molecular target: 5-hydroxytryptamine receptor 5A (Homo sapiens) (UniProt P47898); assay: HTR5A agonists in luminescence cell assay, primary screen, counter-screen for OPRM1-OPRD1 heterodimer agonist project, full-deck HTS (AID 504692); conditions: cell-based, at 9.3 µM, stronger effect = higher value;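 note: 0% = cells with vehicle only and 100% = reference agonist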

Row | Compound | activation
1 | CN1C(=O)C2(Nc3ccccc3-c3nc4ccccc4n32)c2ccccc21 (configuration not stated) | inactive: -6.97%
2 | Cc1ccc2c(c1)C1CN(C)CCC1N2C(=O)Cc1cccs1 (configuration not stated) | inactive: 13.2%
3 | Cc1ccc2c(c1)[C@@H]1CN(C)CC[C@@H]1N2C(=O)Nc1cccc(C(F)(F)F)c1 | inactive: -2.86%
4 | Cc1ccc(-c2csc(NC(=O)Cn3cnc4c3c(=O)n(C)c(=O)n4C)n2)cc1C | inactive: 3.49%
5 | CCOC(=O)c1ccccc1NC(=O)CSc1nc2ccccc2n1CC(=O)N1CCCC1 | inactive: 7.49%
6 | COc1ccc(N2C(=O)CC(n3cnc4ccccc43)C2=O)cc1 (configuration not stated) | inactive: 1.7%
7 | COc1ccccc1NC(=O)Cn1cnc2c1c(=O)n(C)c(=O)n2C | inactive: 2.89%
8 | CCN1C(=O)C2(Nc3ccccc3-c3nc4ccccc4n32)c2cc(OC)ccc21 (configuration not stated) | inactive: 0.9%
9 | CC1CC(C)CN(C(=O)Cn2c(SCC(=O)N3CCc4ccccc4C3)nc3ccccc32)C1 (configuration not stated) | inactive: -3.03%
10 | CCC(C)N(CC(C)C)C(=S)SC(NC(C)=O)C(Cl)(Cl)Cl (configuration not stated) | inactive: -1.35%
11 | CCc1ccc(NC(=O)Cn2c(SC)nc3ccccc32)cc1 | inactive: -1.34%
12 | O=C(Cn1cnc2c(NC(=O)OCc3ccccc3)ncnc21)NCc1ccccn1 | inactive: -3.59%
13 | Cc1nc2ccccc2n1CC(=O)NN | inactive: 1.2%
14 | Cc1ccc(NC(=O)CCC(=O)N/N=C/C=C/c2ccccc2)cc1 | inactive: 0.9%
15 | Cc1nc2ccccc2n1CC(=O)N/N=C\c1ccccn1 | inactive: 4.46%
16 | CC(C)NC(=O)Cn1c(SCC(=O)N2CCCc3ccccc32)nc2ccccc21 | inactive: -0.23%
17 | O=C(c1ccccc1)N1CCn2c(nc3ccccc32)C1 | inactive: 6.18%
18 | CCc1cccc(C)c1N(C(=O)Cn1c(COC)nc2ccccc21)C(C)COC (configuration not stated) | inactive: -5.68%
19 | CCc1ccc(S(=O)(=O)N2c3ccc(C)cc3C3CN(C)CCC32)cc1 (configuration not stated) | inactive: -6.02%
20 | O=[N+]([O-])c1ccc2c(c1)nc1n2CCN(c2ccccc2)C1 | inactive: -0.07%
21 | N=c1n(CCN2CCCC2)c2ccccc2n1CC(O)c1ccc(Cl)c(Cl)c1 (configuration not stated) | inactive: 0.94%
22 | CC(C)NC(=O)Cn1c(SCC(=O)NC2CCCC2)nc2ccccc21 | inactive: 4.52%

Row | Compound | activation
23 | O=C(Cn1cnc2c(NC(=O)OCc3ccccc3)ncnc21)NCCN1CCOCC1 | inactive: 2.52%
24 | CC(C)[C@H](NC(=O)N1CCn2c1nc1ccccc12)C(=O)NC1CC1 | inactive: 1.08%
25 | COc1cccc(NC(=O)[C@H](CC(C)C)NC(=O)N2CCn3c2nc2ccccc23)c1 | inactive: -2.66%
26 | COc1ccc2c(c1)C1(Nc3ccccc3-c3nc4ccccc4n31)C(=O)N2C (configuration not stated) | inactive: 2.78%
27 | C=CCn1c(=O)c2c(nc3n2CCN3c2cccc(Cl)c2C)n(C)c1=O | inactive: 0.69%
28 | COP1(=S)c2c(C)nn(CCC#N)c2N=C(c2ccc(F)cc2)N1C (configuration not stated) | inactive: -2.14%
29 | CN(C)CCn1c(NCc2ccc3c(c2)OCO3)nc2ccccc21 | inactive: 5.45%
30 | COC(=O)C[C@H](NC(=O)Cn1cnc2c(NCc3ccccc3)ncnc21)C(=O)OC | inactive: 0.75%
31 | Cc1ccc(C)c(S(=O)(=O)N2CCN(C(=O)Cn3cnc4c3c(=O)n(C)c(=O)n4C)CC2)c1 | inactive: 1.22%
32 | O=C(C1CCN(S(=O)(=O)c2cccc3nsnc23)CC1)N1CCn2c1nc1ccccc12 | inactive: -27.4%
33 | N=c1n(CCN2CCCCC2)c2ccccc2n1CC(=O)c1cccs1 | inactive: 3.44%
34 | CSc1nc(N)nc2c1ncn2CC(=O)Nc1ccc(C)c(C)c1 | inactive: 2.99%
35 | O=C(Cn1cnc2c(OCc3ccccc3)ncnc21)N1CCN(c2ccccn2)CC1 | inactive: 2.65%
36 | O=C(Nc1ccccc1C(F)(F)F)N1CCC(n2c(=O)[nH]c3ccccc32)CC1 | inactive: 8.03%
37 | N#CCC(=O)N/N=C\c1cccc(OC/C=C/c2ccccc2)c1 | inactive: 4.54%
38 | CC(C)[C@H](NC(=O)N1CCn2c1nc1ccccc12)C(=O)N[C@H](Cc1ccccc1)C(=O)O | inactive: 4.25%
39 | COC(=O)c1cccc(NC(=O)Cn2cnc3c2c(=O)n(C)c(=O)n3C)c1 | inactive: -3.14%
40 | O=C(Cn1cnc2ccccc21)Nc1ccc(F)c(F)c1 | inactive: 4.05%
41 | O=C(COc1ccccc1)OC1CN2CCC1CC2 (configuration not stated) | inactive: -2.07%
42 | Cc1ccc2c(c1)C1CN(C)CCC1N2S(=O)(=O)c1cccc(C(F)(F)F)c1 (configuration not stated) | inactive: 5.03%
43 | O=C(Nc1ccncc1[N+](=O)[O-])c1ccc([N+](=O)[O-])cc1[N+](=O)[O-] | inactive: -1.37%
44 | CCOCN(C(=O)Cn1cnc2ccccc21)c1c(C)cccc1CC | inactive: -2.25%

Row | Compound | activation
45 | Cc1nc2cc(C(F)(F)F)ccc2n1CCNc1nc(-c2ccc(F)cc2)cs1 | inactive: 2.27%
46 | c1ccc(Cn2c(CNc3nc4ccccc4n3CCN3CCOCC3)nc3ccccc32)cc1 | inactive: 0.19%
47 | CCC(C(=O)NC1CCCCC1)n1c(SCc2cccc(C)c2)nc2ccncc21 (configuration not stated) | inactive: 2.39%
48 | O=C(C1CCCN(S(=O)(=O)c2cccnc2)C1)N1CCn2c1nc1ccccc12 (configuration not stated) | inactive: 4.57%
49 | COc1ccc(CNC(=O)Cn2cnc3c(NCc4ccccc4)ncnc32)cc1 | inactive: -1.51%
50 | CC(NC(=O)Cn1cnc2c1c(=O)n(C)c(=O)n2C)c1ccccc1 (configuration not stated) | inactive: 5.38%
51 | O=C(Cn1cnc2ccccc21)Nc1ccc(SC(F)F)cc1 | inactive: 2.02%
52 | COc1ccc(N/C(=N/P(=O)(N2CCOCC2)N2CCOCC2)N2CCOCC2)cc1 | inactive: 0.78%
53 | CN(C)C(=O)Cn1c(SCC(=O)NCc2ccc3c(c2)OCO3)nc2ccccc21 | inactive: -1.37%
54 | CCN(CC)S(=O)(=O)c1ccc(OC)c(NC(=O)Cn2cnc3c2c(=O)n(C)c(=O)n3C)c1 | inactive: 0.6%
55 | Cn1c(=O)c2ncn(CC(=O)Nc3cccc(-c4nc5ccccc5s4)c3)c2n(C)c1=O | inactive: 0.08%
56 | O=C(Cn1cnc2c(OCc3ccccc3)ncnc21)NCc1ccccn1 | inactive: -1.28%
57 | c1ccc2c(c1)nc1n2CCN1CCNC1CCCCC1 | inactive: -7.51%
58 | COc1cc(NC(=O)Cn2cnc3c(NCc4ccccc4)ncnc32)cc(OC)c1OC | inactive: 1.92%
59 | Cc1cc2ncn(C3CC(=O)N(Cc4ccccc4)C3=O)c2cc1C (configuration not stated) | inactive: 1.06%
60 | O=[N+]([O-])c1cc(Oc2ccc([N+](=O)[O-])cc2C(F)(F)F)cc([N+](=O)[O-])c1 | inactive: -0.5%
61 | CN(c1ccccc1)S(=O)(=O)c1cccc(NC(=O)Cn2cnc3c2c(=O)n(C)c(=O)n3C)c1 | inactive: 2.55%
62 | Cc1ccc(CNC(=O)Cn2cnc3c(OCc4ccccc4)ncnc32)o1 | inactive: 0.67%
63 | CN(C)CCn1c(=N)n(CC(O)c2ccc(Cl)c(Cl)c2)c2ccccc21 (configuration not stated) | inactive: 5.72%
64 | Nc1nonc1-c1nc2ccccc2n1CC(=O)N1CCN(c2ccc(F)cc2)CC1 | inactive: 0.64%
65 | COc1cc(NC(=O)[C@@H](NC(=O)N2CCn3c2nc2ccccc23)C(C)C)cc(OC)c1 | inactive: 0.14%
66 | COC(=O)[C@H](Cc1ccc(O)cc1)NC(=O)Cn1cnc2c(SC)nc(N)nc21 | inactive: 6.38%

Row | Compound | activation
67 | CC(C)[Si]1(C(C)C)OCC2OC(n3cnc4c(N)ncnc43)C(N)C2O[Si](C(C)C)(C(C)C)O1 (configuration not stated) | inactive: 5.89%
68 | N=c1n(CCN2CCCCC2)c2ccccc2n1CC(O)c1ccc(Cl)c(Cl)c1 (configuration not stated) | inactive: -4.36%
69 | NC(=O)CC(NC(=O)c1cccc(Br)c1)c1ccc(NC2CCN(Cc3ccccc3)CC2)c([N+](=O)[O-])c1 (configuration not stated) | inactive: -1.41%
70 | CC(C)NC(=O)CSc1nc2ccccc2n1CC(=O)N(C(C)C)C(C)C | inactive: 0.16%
71 | Cc1ccc(S(=O)(=O)Nc2ccc(Cl)cc2)cc1NC(=O)Cn1cnc2c1c(=O)n(C)c(=O)n2C | inactive: 5.69%
72 | Cc1ccc2c(c1)C1CN(C)CCC1N2C(=O)c1ccco1 (configuration not stated) | inactive: 0.85%
73 | O=C(Cn1c(NCCO)nc2ccccc21)Nc1cccc(S(=O)(=O)N2CCCC2)c1 | inactive: 7.02%
74 | CCN(CC)c1ccc(CNc2nc3ccccc3n2CCN2CCOCC2)cc1 | inactive: -0.67%
75 | O=C(O)CCc1nn2c3ccccc3n(CCN3CCCCC3)c2nc1=O | inactive: 1.21%
76 | Cc1cnc(NC(=O)Cn2cnc3c2c(=O)n(C)c(=O)n3C)s1 | inactive: -1.96%
77 | Cc1ccc(Cn2nnnc2CN2CCC(n3nnc4cc(C(F)(F)F)ccc43)CC2)cc1 | inactive: -0.46%
78 | Cc1ccc(-c2csc(NCCn3c(-c4ccncc4)nc4cc(C(F)(F)F)ccc43)n2)cc1 | inactive: -1.3%
79 | Nc1nonc1-c1nc2ccccc2n1CC(=O)NC1CCCC1 | inactive: -2.54%
80 | CSc1nc(N)nc2c1ncn2CC(=O)NCc1ccc2c(c1)OCO2 | inactive: 4.66%
81 | CC(C)(C)NC(=O)Cn1c(SCC(=O)NC2CC2)nc2ccccc21 | inactive: 12.2%
82 | O=C1C2CCCCC2C(=O)N1c1ccc(NC2CCN(Cc3ccccc3)CC2)c([N+](=O)[O-])c1 (configuration not stated) | inactive: -4.24%
83 | O=C(Cn1cnc2c(NCc3ccccc3)ncnc21)NCCCN1CCCC1=O | inactive: -1.63%
84 | Cn1c(=O)c2c(nc(Cl)n2CC(=O)N2CCCCC2)n(C)c1=O | inactive: 3.45%
85 | Cc1cc(=O)[nH]c(N[N+](=O)[O-])n1 | inactive: -2.06%
86 | CCn1cc(C(=O)N2CCn3c(nc4ccccc43)C2)c(=O)c2ccc(C)nc21 | inactive: 13.5%
87 | Cn1c(=O)c2c(ncn2CC(=O)Nc2nccs2)n(C)c1=O | inactive: 2.9%
